# Results: ChEMBL document CHEMBL3352459, “Synthesis and evaluation of N-acyl-substituted 1,2-benzisothiazol-3-one derivatives as caspase-3 inhibitors” (Bioorg Med Chem, 2014)
# Molecular target: T1, Caspase-3 (Homo sapiens, UniProt P42574)
# T1 sequence (P42574 whole entry): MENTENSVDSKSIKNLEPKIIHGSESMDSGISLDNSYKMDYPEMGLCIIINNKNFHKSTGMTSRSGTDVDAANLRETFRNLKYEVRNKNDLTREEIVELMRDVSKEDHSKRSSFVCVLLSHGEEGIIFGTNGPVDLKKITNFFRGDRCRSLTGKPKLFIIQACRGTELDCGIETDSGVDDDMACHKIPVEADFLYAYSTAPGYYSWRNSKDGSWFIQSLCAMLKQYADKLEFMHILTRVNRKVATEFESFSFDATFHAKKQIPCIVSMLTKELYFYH
# Assay: Inhibition of recombinant human caspase-3 activity using Ac-DEVD-AMC as substrate preincubated for 10 mins by fluorescence assay
structure (smiles),measurement,value
CC(=O)N[C@@H](CC(=O)O)C(=O)N[C@@H](CCC(=O)O)C(=O)N[C@H](C(=O)N[C@H](C=O)CC(=O)O)C(C)C,IC50,75.7 nM
